Bioassay records (PubChem BioAssay)
PglD DTNB: blocks C. jejuni PglD acetyltransferase activity; inhibition, % at 12.5 µM; actives 0.098% (n = 360,000); purified PglD enzyme, DTNB colorimetric CoA detection; in the data active = inhibition above about 16%, passing the limit was not always enough
esBAF inh: inhibitors of esBAF chromatin remodeling in mouse ES cells. reporter increase, % at 12.5 µM. Bmi1-luciferase knock-in reporter, 24 h; 100% = twice the neutral-well signal. actives 2% (n = 350,000). AID 602393; in the data active = activation above about 40%;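 also: 0% = median of the plate's neutral control wells and 100% = double that signal; a rise in the Bmi1 reporter signal indicates esBAF inhibition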
E-selectin induc: induces E-selectin expression in human endothelial cells; HUVEC E-selectin immunofluorescence imaging; normalized: neutral wells 0, TNF-alpha wells 100; activation, % at 7.58 µM; actives 0.37% (n = 260,000); AID 686992;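 active = mean E-selectin-positive cell signal at least 10% of the positive control, reached in at least 60% of replicates, without over 20% cell loss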
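Read-out: % PE-positive cells | Test system: HUVEC | Doses: One compound dose added by pin transfer | Buffer or medium: EGM-2 over gelatin coat | Signal: Immunofluorescence imaging | Benchmarks: TNF-alpha, DMSO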
PGC1a acetyl inh: lowers PGC1a acetylation signal in U2OS cells; AlphaScreen anti-acetyl-lysine; with virally co-expressed GCN5 acetyltransferase; inhibition, % at 15.6 µM; actives 0.17% (n = 350,000); AID 651687;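 active = every replicate shows inhibition of at least 40%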;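 also: 0% = neutral control wells and 100% = positive control wells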
Yeast UUG start: modulators of start codon recognition fidelity in yeast; S. cerevisiae UUG-firefly luciferase reporter, luminescence/redox ratio; activity score, % at 18.7 µM; hit rate 0.13% among 350,000; AID 602363;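 active = replicate mean at a twofold rise or more, about +100% in these data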;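 note: firefly luciferase made from a UUG start codon reports start codon fidelity; reporter light over untreated wells divided by growth signal over untreated wells; some hits fall short of that in this replicate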
Statin myotox sup: protects C2C12 myotubes from simvastatin toxicity. ATP luminescence, 48 h; scaled: DMSO 0, geranylgeraniol control 100. rescue of ATP level, % at 7.49 µM. actives 0.78% (n = 330,000);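 active = mean ATP rescue above about 67%, or every replicate alone reaching that limit, limit read from the data, passing the limit was not always enough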;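 also: myotubes were challenged with 10 µM simvastatin during compound exposure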
Starred values were filed as active, the others as inactive. In the library only some 2.8% were active in any assay of this set; here they are far more common.

Results for COC(=O)C1=C(N)N(c2ccccc2C(F)(F)F)C2=C(C(=O)CCC2)C1c1ccc2c(c1)OCO2 (stereo not drawn) ?
PglD DTNB: -1; esBAF inh: 0; PGC1a acetyl inh: -11; Yeast UUG start: -7; Statin myotox sup: 93*

How did O=C1C(=Cc2ccco2)CCC1=Cc1ccco1 do in these assays?
PglD DTNB: -2; esBAF inh: 1; E-selectin induc: 1; PGC1a acetyl inh: 13; Yeast UUG start: -19; Statin myotox sup: 6

How did O=C1C(=Cc2ccco2)CCCC1=Cc1ccco1 do in these assays?
PglD DTNB: -5; esBAF inh: 57*; E-selectin induc: -2; PGC1a acetyl inh: -19; Yeast UUG start: -27; Statin myotox sup: 2

Results for C[C@@H]1CN([C@@H](C)CO)C(=O)c2cc(NC(=O)Cc3ccccc3)ccc2O[C@@H](C)CCCCO[C@H]1CN(C)C(=O)c1ccccc1 ?
PglD DTNB: -3; esBAF inh: 1; E-selectin induc: 0; PGC1a acetyl inh: 1; Yeast UUG start: 7

Results for O=C(C[C@@H]1C=C[C@@H](NC(=O)c2ccc(F)cc2)[C@H](CO)O1)NCCc1ccccc1 ?
PglD DTNB: 3; esBAF inh: 2; E-selectin induc: 0; PGC1a acetyl inh: -39; Yeast UUG start: -16; Statin myotox sup: 13

What do the screens show for `ON=C1c2ccccc2-c2ccccc21`?
PglD DTNB: -3; esBAF inh: 6; E-selectin induc: 0; Yeast UUG start: -21; Statin myotox sup: -12

What do the screens show for `Nc1cc2c(cc1Cl)-c1ccccc1C2=NO`?
PglD DTNB: -2; esBAF inh: 52*; E-selectin induc: 1; PGC1a acetyl inh: -17; Yeast UUG start: -13; Statin myotox sup: -3

Results for COc1ccc(CN(C)C[C@@H]2Oc3ccc(NC(=O)Cn4cnnn4)cc3C(=O)N([C@H](C)CO)C[C@H]2C)cc1 ?
PglD DTNB: 8; esBAF inh: 1; E-selectin induc: -1; PGC1a acetyl inh: 7; Statin myotox sup: 13

Results for COCCn1c(C)cc(C(=O)CSc2nc3ccccc3o2)c1C ?
PglD DTNB: -2; esBAF inh: 8; PGC1a acetyl inh: -2; Yeast UUG start: -32; Statin myotox sup: 85*

What do the screens show for `C[C@@H]1CCCCO[C@@H](CN(C)Cc2ccc(C(=O)O)cc2)[C@H](C)CN([C@H](C)CO)C(=O)c2cc(N(C)C)ccc2O1`?
esBAF inh: 6; E-selectin induc: 0; PGC1a acetyl inh: 11; Statin myotox sup: -30

What do the screens show for `COc1cccc(C(=O)Nn2cnnc2)c1OC`?
PglD DTNB: -1; esBAF inh: 2; PGC1a acetyl inh: 75*; Yeast UUG start: -14; Statin myotox sup: 3

Results for COc1ccccc1C(=O)Nn1cnc2ccccc2c1=O ?
PglD DTNB: -3; esBAF inh: 68*; PGC1a acetyl inh: -5; Yeast UUG start: -2; Statin myotox sup: 4

How did Cc1cc(C)n(CC(=O)NC2CCCc3c2cnn3-c2ccc(C)c(C)c2)n1 (stereo not drawn) do in these assays?
PglD DTNB: 3; esBAF inh: 59*; PGC1a acetyl inh: -4; Yeast UUG start: 19; Statin myotox sup: 37

Results for c1ccc(CSc2nc3ccccc3[nH]2)cc1 ?
PglD DTNB: 4; esBAF inh: -29; E-selectin induc: 0; PGC1a acetyl inh: -12; Yeast UUG start: -16; Statin myotox sup: 0

How did O=[N+]([O-])c1ccc(CSc2nc3ccccc3[nH]2)cc1 do in these assays?
PglD DTNB: 2; esBAF inh: 72*; E-selectin induc: -3; PGC1a acetyl inh: -7; Yeast UUG start: -1; Statin myotox sup: -4

What do the screens show for `CC(=O)COc1ccc2c(c1C)O/C(=C\c1ccco1)C2=O`?
PglD DTNB: -4; esBAF inh: 61*; PGC1a acetyl inh: -7; Yeast UUG start: -7; Statin myotox sup: 36

Results for CCCCn1c(CCc2ccccc2)nc2cc3[nH]c(=O)c(C(C)C)nc3cc21 ?
PglD DTNB: -4; esBAF inh: 0; E-selectin induc: 0; PGC1a acetyl inh: 10; Yeast UUG start: -2; Statin myotox sup: 119*

What do the screens show for `CCCNC(=O)N1C[C@@H]2[C@H](c3ccccc31)[C@@H](CO)N2C(=O)NCCC`?
PglD DTNB: -2; esBAF inh: -3; E-selectin induc: 0; PGC1a acetyl inh: 2; Yeast UUG start: -4; Statin myotox sup: 8

Results for Cn1cc(Cl)c(C(=O)Nc2cccc(Cl)c2Cl)n1 ?
PglD DTNB: -7; esBAF inh: 71*; PGC1a acetyl inh: -2; Yeast UUG start: -20; Statin myotox sup: 15

Results for Cn1nccc1NC(=O)Nc1cccc(Cl)c1Cl ?
PGC1a acetyl inh: -3

How did CC(=O)c1c(C)[nH]c(C(=O)CSc2ccc(F)cc2)c1C do in these assays?
PglD DTNB: 4; PGC1a acetyl inh: 10; Yeast UUG start: -13

What do the screens show for `Cc1cc(C(=O)CSc2ccc(F)cc2)cc(C)c1O`?
PglD DTNB: -4; esBAF inh: 56*; E-selectin induc: 4; Yeast UUG start: -16; Statin myotox sup: -5

Results for C[C@H]1CCCCO[C@H](CN(C)C(=O)Nc2ccc(F)cc2)[C@@H](C)CN([C@@H](C)CO)C(=O)c2cc(NS(=O)(=O)c3cccs3)ccc2O1 ?
PglD DTNB: 6; esBAF inh: 5; E-selectin induc: 0; PGC1a acetyl inh: -9; Yeast UUG start: -28; Statin myotox sup: 38

Results for c1ccc(Cn2ncc3c(Nc4ccccc4)ncnc32)cc1 ?
PglD DTNB: -1; esBAF inh: -4; E-selectin induc: 0; Yeast UUG start: -5; Statin myotox sup: 6

How did COc1ccc(Nc2ncnc3c2cnn3Cc2ccc(C)cc2)cc1 do in these assays?
PglD DTNB: 3; esBAF inh: 1; PGC1a acetyl inh: 3; Yeast UUG start: -10; Statin myotox sup: 68*

Results for C[C@@H]1CCCCO[C@H](CN(C)C(=O)Nc2ccc(F)cc2)[C@@H](C)CN([C@@H](C)CO)C(=O)c2cc(NC(=O)NC3CCCCC3)ccc2O1 ?
PglD DTNB: 2; esBAF inh: 3; E-selectin induc: 0; PGC1a acetyl inh: 6; Yeast UUG start: -10

What do the screens show for `CCn1c(CCc2ccccc2)nc2ccccc21`?
PglD DTNB: 2; esBAF inh: 42*; E-selectin induc: 0; PGC1a acetyl inh: -3; Yeast UUG start: -32; Statin myotox sup: -18

What do the screens show for `CCCn1c(N)nc2ccccc21`?
PglD DTNB: 3; esBAF inh: -1; PGC1a acetyl inh: 1; Yeast UUG start: -12; Statin myotox sup: 2

What do the screens show for `CCn1c(N)nc2ccccc21`?
PglD DTNB: -6; esBAF inh: 53*; PGC1a acetyl inh: 2; Yeast UUG start: -9; Statin myotox sup: 1

Molecules above containing a furan ring, fused or not (3):
How did O=C1C(=Cc2ccco2)CCC1=Cc1ccco1 do in these assays?
PglD DTNB: -2; esBAF inh: 1; E-selectin induc: 1; PGC1a acetyl inh: 13; Yeast UUG start: -19; Statin myotox sup: 6

How did O=C1C(=Cc2ccco2)CCCC1=Cc1ccco1 do in these assays?
PglD DTNB: -5; esBAF inh: 57*; E-selectin induc: -2; PGC1a acetyl inh: -19; Yeast UUG start: -27; Statin myotox sup: 2

What do the screens show for `CC(=O)COc1ccc2c(c1C)O/C(=C\c1ccco1)C2=O`?
PglD DTNB: -4; esBAF inh: 61*; PGC1a acetyl inh: -7; Yeast UUG start: -7; Statin myotox sup: 36
